Results reported in article PMC3119039 (2011).

Molecular target: cyclin A (endogenous) (human (endogenous in HCT116 and RPE-hTERT)) (UniProt P20248)
Experiment: co-IP

Cdk2 (wild-type) (from UniProt P24941 1-298) (enzyme)
fold more than Cdk1 in cyclin A complexes: 2 fold
